# Measured values reported in ChEMBL document CHEMBL4219151, “Piperidinyl Ureas Chemically Control Defective in Cullin Neddylation 1 (DCN1)-Mediated Cullin Neddylation” (J Med Chem, 2018).
# By UniProt entry, the sequences of proteins in these tests, tags left out. Where a name states a change or a piece, a line headed by the entry shows the natural chain unless it says otherwise.
# UniProt Q96GG9: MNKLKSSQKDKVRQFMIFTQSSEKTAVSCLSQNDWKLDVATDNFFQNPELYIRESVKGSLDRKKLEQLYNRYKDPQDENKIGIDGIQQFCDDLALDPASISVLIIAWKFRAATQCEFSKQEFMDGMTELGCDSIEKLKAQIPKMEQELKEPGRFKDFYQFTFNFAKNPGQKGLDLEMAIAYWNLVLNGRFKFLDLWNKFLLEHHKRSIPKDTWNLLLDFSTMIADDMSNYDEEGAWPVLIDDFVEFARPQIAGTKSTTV
# Molecular target: DCN1-like protein 1 (Homo sapiens, UniProt Q96GG9)
row,SMILES,IC50 [µM]
1,CCCC(=O)N1CCC(N(Cc2ccccc2)C(=O)Nc2cccc(C(F)(F)F)c2)CC1,36
2,Cc1ccc(CN2CCC(NC(=O)Nc3cccc(C(F)(F)F)c3)CC2)cc1,19
3,O=C(Nc1cccc(C(F)(F)F)c1)N(Cc1ccccc1)C1CCN(Cc2ccccc2)CC1,3.2
4,O=C(Nc1cccc(C(F)(F)F)c1)NC1CCN(Cc2cccc(Cl)c2)CC1,33
5,CCCCCCN1CCC(N(Cc2ccccc2)C(=O)Nc2cccc(C(F)(F)F)c2)CC1,1.1
6,CCCCS(=O)(=O)N1CCC(N(Cc2ccccc2)C(=O)Nc2cccc(C(F)(F)F)c2)CC1,0.14
7,C=CC(=O)N1CCC(N(Cc2ccccc2)C(=O)Nc2cccc(C(F)(F)F)c2)CC1,36
8,O=C(Nc1cccc(S(F)(F)(F)(F)F)c1)NC1CCN(Cc2ccccc2)CC1,23
